Values quoted from earlier work, collected in PubChem BioAssay AID493017.
pIC50, pKd, pKi: −log10 of the molar value.

Legend:
Experiment in all cases: PubChem AID 493017
KCNJ5 = details: WOMBAT literature affinities, multiple human targets; K(+) channel; gene KCNJ5; NCBI gene 3762
PARP1 = details: WOMBAT literature affinities, multiple human targets; PARP1; gene PARP1; NCBI gene 142
[1] = biological target: WOMBAT literature affinities, multiple human targets; details: binding affinity Ki; HIV-1 P; gene HIV-1 protease
DRD2 = details: WOMBAT literature affinities, multiple human targets; binding affinity Ki; D2; gene DRD2; NCBI gene 1813
PLAU = details: WOMBAT literature affinities, multiple human targets; uPA; gene PLAU; NCBI gene 5328
FNTA = details: WOMBAT literature affinities, multiple human targets; FTase; gene FNTA; NCBI gene 2339
F2 = details: WOMBAT literature affinities, multiple human targets, thrombin, gene F2, NCBI gene 2147; for pKi: binding affinity Ki
OPRM1 = details: WOMBAT literature affinities, multiple human targets; binding affinity Ki; mu; gene OPRM1; NCBI gene 4988
AR = details: WOMBAT literature affinities, multiple human targets, AR, gene AR, NCBI gene 367
MMP1 = details: WOMBAT literature affinities, multiple human targets; MMP-1; gene MMP1; NCBI gene 4312
CNR1 = details: WOMBAT literature affinities, multiple human targets; binding affinity Ki; CB1; gene CNR1; NCBI gene 1268
ADORA1 = details: WOMBAT literature affinities, multiple human targets; binding affinity Ki; A1; gene ADORA1; NCBI gene 134
GRIN1 = details: WOMBAT literature affinities, multiple human targets; binding affinity Ki; NMDA; gene GRIN1; NCBI gene 2902
CCKAR = details: WOMBAT literature affinities, multiple human targets; binding affinity Kd; CCK1; gene CCKAR; NCBI gene 886
CACNA1C = details: WOMBAT literature affinities, multiple human targets, Ca(2+) channel, gene CACNA1C, NCBI gene 775
SIGMAR1 = details: WOMBAT literature affinities, multiple human targets; binding affinity Ki; sigma; gene SIGMAR1; NCBI gene 10280
NK1 = details: WOMBAT literature affinities, multiple human targets; binding affinity Ki; NK1; gene NK1; NCBI gene 6869
ALOX5 = details: WOMBAT literature affinities, multiple human targets; 5-LOX; gene ALOX5; NCBI gene 240
DHFR = details: WOMBAT literature affinities, multiple human targets; binding affinity Ki; DHFR; gene DHFR; NCBI gene 1719
GABRA1 = details: WOMBAT literature affinities, multiple human targets, GABA-A, gene GABRA1, NCBI gene 2554
ACHE = details: WOMBAT literature affinities, multiple human targets; AChE; gene ACHE; NCBI gene 43
CHRNA = details: WOMBAT literature affinities, multiple human targets; binding affinity Ki; nAChR; gene CHRNA; NCBI gene 1134

CN(C1c2cc(OCCCC(F)(F)F)ccc2OC(C)(C)C1O)S(C)(=O)=O (centres undefined)
pIC50 (KCNJ5): 4.90

Nc1cccc2c1CC=NC2=O
pIC50 (PARP1): 5.45

COc1ccc(S(=O)(=O)N(CC(C)C)CC(O)C(Cc2ccccc2)NC(=O)OC2COC3OCCC23)cc1 (centres undefined)
pKi [1]: 4.85

CN(CCCC(=O)c1ccc(F)cc1)CCCC(O)c1ccc(Cl)cc1 (centres undefined)
pKi (DRD2): 7.58

O=C(CCCN1CCC(c2ccc(Cl)cc2)CC1)c1ccc(F)cc1
pKi (DRD2): 7.81

N=C(N)c1cc2c(C=Cc3ccc4c(c3)OCO4)cccc2s1
pIC50 (PLAU): 7.15

CC1(c2cccc3ccccc23)C(=O)N(CCCn2ccnc2)C(=O)N1Cc1ccc(CN)cc1 (centres undefined)
pIC50 (FNTA): 5.68

N=C(N)c1ccc(CNC(=O)C2CCC3CC[C@@](O)(Cc4ccccc4)C(=O)N32)cc1 (some centres undefined)
pIC50 (F2): 7.70

CC(C)CC(NC(=O)C(Cc1ccccc1)NC(=O)CNC(=O)CNC(=O)C(N)Cc1ccc(O)cc1)C(N)=O (centres undefined)
pKi (OPRM1): 7.60

COc1ccc(-c2ncc(CN(C)Cc3ccccc3)[nH]2)cc1
pKi (DRD2): 5.46

C[C@](O)(CS(=O)(=O)c1ccc(NC(=O)CCl)cc1)C(=O)Nc1ccc(C#N)c(C(F)(F)F)c1
pKi (AR; binding affinity Ki): 7.97

Cc1cc(F)ccc1COc1ccc(S(=O)(=O)N2CCCC(C)(O)C2C(=O)NO)cc1 (centres undefined)
pIC50 (MMP1): 8.00

CCCCCn1cc(C(=O)c2cccc3ccccc23)c2ccccc21
pKi (CNR1): 8.05

O=c1cc(-c2ccccc2)oc2cccc(O)c12
pKi (ADORA1): 5.66

O=c1[nH]n(Cc2cccnc2)c(=O)c2c(=O)c3ccc(Cl)cc3[nH]c12
pKi (GRIN1): 7.00

Nc1nc(Cl)nc2c1ncn2C1OC(CO)C(O)C1O (centres undefined)
pKi (ADORA1): 8.17

CSCCC(NC(=O)C(N)Cc1c[nH]c2ccccc12)C(=O)NC(CC(=O)O)C(=O)NC(Cc1ccccc1)C(N)=O (centres undefined)
pKd (CCKAR): 8.49

COc1ccc(C2Cc3cc(OC)ccc3N(CCN(C)C)C(=O)C2OC(C)=O)cc1 (centres undefined)
pIC50 (CACNA1C): 5.72

CN(CCc1ccc(Cl)c(Cl)c1)C1CCCCC1N1CCCC1 (centres undefined)
pKi (SIGMAR1): 7.19

CON=C(CN(C)C(=O)c1ccccc1OC)C(CCN1CCC(O)(c2ccccc2)CC1)c1ccc(Cl)c(Cl)c1 (centres undefined)
pKi (NK1): 4.24

NCc1ccc(Cl)cc1CNC(=O)C1CCCN1C(=O)C1(O)c2ccccc2-c2ccccc21 (centres undefined)
pKi (F2): 9.30

CC[C@](OC)(C(=O)OC)c1cc(F)cc(OCc2ccc3ccccc3c2)c1
pIC50 (ALOX5): 6.91

COc1cc(Cc2cnc(N)nc2N)ccc1O
pKi (DHFR): 7.54

c1ccc2c(c1)[nH]c1c2ccc2[nH]c3ccccc3c21
pIC50 (GABRA1): 5.72

C[C@]1(C(=O)NC(CCC(=O)O)C(=O)O)CCCN1C(=O)CN (some centres undefined)
pKi (GRIN1): 5.10

NC(C(=O)O)c1ccc(F)cc1F (centres undefined)
pKi (CACNA1C; binding affinity Ki): 5.46

CN1CC[C@]2(c3cccc(O)c3)CC(=O)C(=Cc3ccc(Cl)c(Cl)c3)C1C2
pKi (SIGMAR1): 5.49

O=c1[nH]c2cc(CN3CC=C(c4ccccc4)CC3)ccc2c2ccccc12
pIC50 (PARP1): 4.80

CCOC(=O)c1c(C)nc2nc3c(c(N)c2c1-c1ccc(OC)c(OC)c1)CCCC3
pIC50 (ACHE): 5.89

CCN1CCN=C1Cc1cccnc1
pKi (CHRNA): 6.82

CCCCC1(Cc2ccccc2)CC(O)=C(C(CC)c2ccccc2)C(=O)O1 (centres undefined)
pKi [1]: 5.52

Cc1cc(OCC2CCN(C(=N)N)CC2)cc(OS(=O)(=O)c2ccccc2Cl)c1
pKi (F2): 8.34

CCC(C)N(C)C(=O)c1cc2ccccc2c(-c2ccccc2Cl)n1 (centres undefined)
pKi (GABRA1; binding affinity Ki): 5.12

CCC(=O)OC1CCC2C3CCC4=CC(=O)CC[C@]4(C)C3CC[C@]12C (some centres undefined)
pIC50 (AR): 5.72
